Values of other authors as cited in US9234902B2, “Method for monitoring anticoagulant therapy” (priority 2011, dated 2016).

Settings: physiologically active gamma carboxylated VKD coagulation factor; cited from earlier work

FX: vitamin K dependent coagulation factor X (Stuart factor)
half-life: ~52 h
